The nature of the data set: Study KAR5585-101 Part 1 (SAD): plasma pharmacokinetics after a single oral dose of KAR5585, fasting and fed (incl. dose proportionality and food effect). Particulars: human, in vivo, 2000 mg, AUC0-24, 2000 mg KAR5585 single oral, fasted, Cohort 6, Mean.

Each structure is given as a SMILES string.

Compound `CCOC(=O)[C@@H]1CC2(CCN(c3cc(O[C@H](c4ccc(Cl)cc4-c4ccccc4)C(F)(F)F)nc(N)n3)CC2)CN1` [KAR5585, (S)-ethyl 8-(2-amino-6-((R)-1-(5-chloro-[1,1′-biphenyl]-2-yl)-2,2,2-trifluoroethoxy)pyrimidin-4-yl)-2,8-diazaspiro[4.5]decane-3-carboxylate] registered an AUC(0-t) of 806 ng·h/mL.
